Experimental data reported in PubChem BioAssay AID1645870 (National Center for Advancing Translational Sciences (NCATS), 2021).
Only a part is listed here, and it is no random draw. Inconclusive results are not listed. Calls of active or inactive are those of the source. Calls follow the shape of the dose curve; as a rule, active = well fitted inhibition curve with a large enough effect; inconclusive = small, poorly fitted or top-dose-only effect; inactive = flat fitted curve, though single readings scatter.

The chains behind the UniProt entries cited, without tags or fusion partners.
UniProt Q9BV86, whole entry: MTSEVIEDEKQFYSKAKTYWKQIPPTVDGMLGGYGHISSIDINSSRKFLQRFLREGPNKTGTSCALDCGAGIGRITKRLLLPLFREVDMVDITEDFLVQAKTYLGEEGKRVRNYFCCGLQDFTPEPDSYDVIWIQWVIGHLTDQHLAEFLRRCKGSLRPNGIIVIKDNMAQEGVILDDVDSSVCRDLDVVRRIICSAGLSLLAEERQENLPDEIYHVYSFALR

target: N-terminal Xaa-Pro-Lys N-methyltransferase 1 (Homo sapiens) (UniProt Q9BV86); assay: Primary qHTS for Inhibitors of N-terminal methyltransferase 1 (NTMT1): MTaseGlo Assay; conditions: NTMT1 MTase-Glo SAH luminescence, purified enzyme; series mostly up to 114 µM; activity change, negative = inhibition: at the top concentration; also: nearly all actives have a fitted effect of over 65% in size;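 as to activity change, negative = inhibition: plate controls were DMSO vehicle for no effect and no enzyme for full effect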
Description: Assay Submitter (PI): Rong Huang Ph.D.
Purdue University, West Lafayette, IN 47907
The N-terminal methytransferase 1 is the first methyltransferase that methylates protein alpha-N-amines and plays an important role in regulating cell mitosis, chromatin interactions and DNA repair. It is observed to be over-expressed in various cancer patient tissues like malignant melanoma and colorectal cancer tissues. Knockdown of NTMT1 in cancer cells causes cell mitotic defects and enhances sensitivity to DNA damaging chemotherapeutics. […] These critical cellular processes in which NTMT1 is implicated, coupled with emerging links to cellular dysfunction, strengthen the inference that NTMT1 is a compelling novel anticancer target. Progress have been made in understanding the molecular properties of NTMT1 and the biological consequences of protein alpha-N-terminal methylation, but there are no specific small molecule probes available for NTMT1 to fully characterize its MTase activity. To address this unmet need, a panel of assay is created and established to enable quantitative high-throughput screening (qHTS) for novel, potent, and selective small molecule NTMT1 inhibitors. Two orthogonal qHTS that use different reagents (ThioGlo vs. MTaseGlo) are developed for primary robotic screening against the NCATS chemical library of more than 400,000 small molecules. Identified inhibitors are reacquired, validated, and further characterized.
MTaseGlo Assay is a luminescence screen that measure the activity of methyltransferases based on the reaction product S-adenosyl homocysteine (SAH). The substrate SAM is converted to SAH upon enzyme activation. MTase-Glo reagent and detection solution convert SAH to ATP and measure the light from the luciferase reaction.
Materials: NTMT1 enzyme, substrate SPKRIA, control peptide RCC1-6 is provided by the Huang laboratory.
SEQUENCE No. (e.g., 1, 2, 3, etc.); […] (e.g., Cells, Incubation, Reagent, etc.); VALUE; DESCRIPTION
1; Enzyme; 3 uL; Dispense enzyme mixture (final concentrations of 125 nM NTMT1 and 100 uM SAM) into Greiner 1536-well white / solid bottom assay plate (Greiner Bio One, Monroe, NC).
2; Compounds; 23 nL; Compounds and controls were transferred via a Kalypsys Pin Tool (Wako USA) equipped with a 1536-slotted pin array (Wako Automation, Richmond, VA)
3; Incubation; 15 min; Incubate at room temperature
4; Substrate; 1 uL; Dispense 1 uL of substrate at final concentration of 1 uM. Buffer solution was dispensed in control wells. The assay plate was covered with metal lids.
5; Incubation; 30 min; Incubate at room temperature, protected from lights.
6; Reagent; 1 uL; Dispensed 5x MTase-Glo detection reagent (R) into the assay plate. The plate was covered with metal lids.
7; Incubation; 30 min; Incubate the assay plates at room temperature in the dark to allow for SAH to be converted to ADP.
8; Reagent; 5 uL; Dispense 5 uL of 1x MTase-Glo Detection Solution (R) to allow for ADP to be converted to ATP which was then detected with a luciferase reaction.
9; Centrifuge; 15 sec; Centrifuge the assay plate for 15 seconds at 1000 RPM.
10; Incubation; 30 min; Assay plates were incubation at room temperature in the dark.
11; Detection; Luminescence; Plates were read on ViewLux detector (PerkinElmer). Data were normalized to no-enzyme (0% activity) and no-inhibitor (DMSO; 100%) controls, and the resulting percent inhibition data were fitted to a 4-parameter Hill equation using GraphPad Prism.
Potency is read from the fitted curve at half-maximal effect.

Row | SMILES | Potency | activity change, negative = inhibition
1 | CCOC(=O)C(=O)CBr | active: 79.4 µM | –
2 | COc1ccccc1C(=O)NCC1(N2CCOCC2)CCCCC1 | – | inactive: 8.19%
3 | O=C(NCC1(N2CCOCC2)CCCCC1)c1ccc(Cl)cc1 | – | inactive: 6.73%
4 | CCOC(=O)N1CCC(=O)CC1 | – | inactive: 17.9% [at 57.5 µM]
5 | O=C(NCC1(N2CCOCC2)CCCCC1)c1ccccc1Br | – | inactive: -0.307%
6 | CCCCOc1ccccc1C(=O)NCC1(N2CCOCC2)CCCCC1 | – | inactive: 5.2%
7 | CCCOc1cccc(C(=O)NCC2(N3CCOCC3)CCCCC2)c1 | – | inactive: 12.1%
8 | CCOc1ccc(C(=O)NCC2(N3CCOCC3)CCCCC2)cc1 | – | inactive: 6.68%
9 | O=C(NCC1(N2CCOCC2)CCCCC1)c1ccccc1 | – | inactive: 3.09%
10 | O=C(NCC1(N2CCOCC2)CCCCC1)c1ccc([N+](=O)[O-])cc1 | – | inactive: -1.86%
11 | O=C(NCC1(N2CCOCC2)CCCCC1)c1ccccc1[N+](=O)[O-] | – | inactive: 17%
12 | COc1cc(C(=O)NCC2(N3CCOCC3)CCCCC2)cc(OC)c1OC | – | inactive: 2.5%
13 | CC(C)(C)c1ccc(C(=O)NCC2(N3CCOCC3)CCCCC2)cc1 | – | inactive: 4.09%
14 | Cc1ccccc1C(=O)NCC1(N(C)C)CCCCC1 | – | inactive: 8.94%
15 | CC(=O)N1CCc2ccc(N(C(=O)/C=C/c3cccc(C#N)c3)C3CCN(CCC4CCCC4)CC3)cc21 | – | inactive: 4.5% [at 57.5 µM]
16 | CN(C)C1(CNC(=O)c2ccc(C(C)(C)C)cc2)CCCCC1 | – | inactive: 4.69%
